In the assay the target is T1, wild-type rat NK2R receptor of tachykinins (construct pCEP4-NK2R), expressed on HEK 293 cells (rat, UniProt P16610 1-390).
T1 construct: whole, on cells; Stably expressed in HEK 293 cells; also called NK2R-WT; NK2R WT
Kind of assay: displacement of 3H SR 48968 on HEK 293 cells expressing NK2R-WT, filtration (FIG. 8a). Here is the method: The incubation is carried out for one hour at 4° C. Filtration is carried out at the end of incubation, as described in 3b).
In general terms: Displacement assays read how much labelled ligand stays bound in the presence of the test substance.

Amino acid sequences for entries named in this document (tags omitted). A change or cut given only in a name is not applied to a line headed by its entry.
UniProt P16610, whole entry: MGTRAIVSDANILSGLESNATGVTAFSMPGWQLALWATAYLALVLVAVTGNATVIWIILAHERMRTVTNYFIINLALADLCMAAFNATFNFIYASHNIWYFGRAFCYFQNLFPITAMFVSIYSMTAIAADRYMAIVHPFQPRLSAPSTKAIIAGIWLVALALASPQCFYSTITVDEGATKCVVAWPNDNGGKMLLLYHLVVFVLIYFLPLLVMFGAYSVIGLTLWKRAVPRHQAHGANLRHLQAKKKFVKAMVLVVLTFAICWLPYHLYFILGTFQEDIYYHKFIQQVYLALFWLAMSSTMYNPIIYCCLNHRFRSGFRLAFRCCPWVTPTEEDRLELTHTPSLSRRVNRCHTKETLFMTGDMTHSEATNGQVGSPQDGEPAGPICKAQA
UniProt P20366: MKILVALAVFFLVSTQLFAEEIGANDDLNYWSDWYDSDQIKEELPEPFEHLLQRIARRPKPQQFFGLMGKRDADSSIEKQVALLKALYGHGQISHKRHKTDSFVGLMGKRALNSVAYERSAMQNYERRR

Broadly, the Ki is a measure of affinity in units of concentration, obtained from inhibition or displacement. The low end stands for a stronger hold on the target, the high end for a looser hold on the target.

B1: neurokinin A (peptide, UniProt P20366 98-107, looked up)
peptide: HKTDSFVGLM
notes: mature; also called NKA; substance K
In turn, B1 yielded a Ki of 3.03 nM. This counts as single-digit nanomolar.

For the origin of these results see patent US20060275828A1 (CENTRE NATIONAL DE LA RECHERCHE SCIENTIFIQUE, published 2006).
